# Ab-14 light chain CDR variants: yeast mating affinities

Reference: Li et al. 2023, doi:10.1038/s41467-023-39022-2. File: FLAb, binding data.

All variants were tested on one target, the spike HR2 peptide PDVDLGDISGINAS (SARS-CoV-2).

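The starting antibody came from a phage panning campaign against this peptide. These sequences belong to a second round, designed from the earlier measurements on random variants of the parent. Several design methods are mixed in this list. AlphaSeq pools MATa yeast showing the antibodies with MATalpha yeast showing the peptide. After mating in shaken culture at 30 °C for 16 h, diploids were selected and their barcode pairs sequenced. A regression on co-assayed BCL2-family reference pairs converts the normalised counts of each replicate to an apparent Kd. Each pool was mated in six replicate cultures.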

Each scFv is VH, the linker GGGGSGGGGSGGGGS, VL, as in the parent Ab-14, and differs from it in the CDRs of the light chain only.
VH: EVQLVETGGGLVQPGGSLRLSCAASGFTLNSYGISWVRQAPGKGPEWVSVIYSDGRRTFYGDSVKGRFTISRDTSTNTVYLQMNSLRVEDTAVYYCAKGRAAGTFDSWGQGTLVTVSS
VL: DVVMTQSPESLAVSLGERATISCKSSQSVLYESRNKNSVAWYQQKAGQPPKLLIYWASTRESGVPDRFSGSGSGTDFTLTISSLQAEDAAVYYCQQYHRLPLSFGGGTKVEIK

Each variant's VL is given in full.
This list holds designs with at most six substitutions.
The Kd shown is the geometric mean over detected replicates; a lower Kd is a better binder.
Where no diploid with the target was found in any replicate, the entry reads "no signal": below detection, most likely a poor binder, though not proof of it.
Background: pairings of all light chain designs with three empty control strains gave a value in 4% of cases (median 430 nM, 5th percentile 38 nM). Values in that range, when seen in few replicates, are hard to tell from nonspecific mating. The control count says in how many pairings with the empty strains this scFv gave a signal.
The authors averaged sequences with at least three values out of six and counted those with two or fewer as poor binders.
A sequence measured in both rounds can read differently, since the two assays cover different ranges.

The variant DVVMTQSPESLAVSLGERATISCKSSQSVTYESRNKNSVAWYQQKAGQPPKLLIYWASTRESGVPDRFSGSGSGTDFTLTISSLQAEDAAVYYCQQYQRLPLSFGGGTKVEIK showed 690 nM (3 of 6 replicates; controls 0 of 18). The variant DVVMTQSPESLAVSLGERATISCKLEQSVLYESRDKNSVAWYQQKAGQPPKLLIYHASTREDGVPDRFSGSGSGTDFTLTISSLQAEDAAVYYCQQYHRLPLSFGGGTKVEIK showed 510 pM (6 of 6 replicates; controls 1 of 18). For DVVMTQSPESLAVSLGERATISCKSSQSVLYQERNKNNVAWYQQKAGQPPKLLIYKASTRESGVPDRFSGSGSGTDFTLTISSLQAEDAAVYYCYQYHELPLSFGGGTKVEIK, the assay gave 19 nM (5 of 6 replicates; controls 0 of 18). With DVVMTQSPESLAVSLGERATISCKSSQSGLYESRNKNSVAWYQQKAGQPPKLLIYWASTRESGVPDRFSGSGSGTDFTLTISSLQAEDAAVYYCQQYHRLPWSFGGGTKVEIK the result was 160 nM (1 of 6 replicates; controls 0 of 18). For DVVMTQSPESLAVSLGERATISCKSSQSVLSESPNKNSVAWYQQKAGQPPKLLIYAASTRESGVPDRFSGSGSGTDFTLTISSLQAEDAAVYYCQQYHRLPLSFGGGTKVEIK, the assay gave 2.3 nM (6 of 6 replicates; controls 2 of 18). With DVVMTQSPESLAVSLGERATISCLSSQSVLYEWRNKQSVAWYQQKAGQPPKLLIYKASTRISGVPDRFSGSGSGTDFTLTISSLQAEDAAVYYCQQYKRLPLSFGGGTKVEIK the result was no signal (0 of 6 replicates; controls 0 of 18). For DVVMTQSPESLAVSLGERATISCKFSQSVLYESRNKNAVAWYQQKAGQPPKLLIYDASTRESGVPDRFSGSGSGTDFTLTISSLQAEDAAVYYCQQYHWLPLSFGGGTKVEIK, the assay gave 880 pM (6 of 6 replicates; controls 2 of 18). For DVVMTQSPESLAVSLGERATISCKSLQSVLYESRNKNSVAWYQQKAGQPPKLLIYHASTREDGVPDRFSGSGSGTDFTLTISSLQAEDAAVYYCQAYHRLPLSFGGGTKVEIK, the assay gave no signal (0 of 6 replicates; controls 0 of 18). The variant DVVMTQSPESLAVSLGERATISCKQSQSVLYESRNKNSVAWYQQKAGQPPKLLIYDASTRSSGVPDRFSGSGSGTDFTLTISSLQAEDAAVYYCQQYHRLPLSFGGGTKVEIK showed 1.7 nM (6 of 6 replicates; controls 6 of 18).

For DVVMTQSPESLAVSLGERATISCKSSQSVLYESRDKNSVAWYQQKAGQPPKLLIYWASTRESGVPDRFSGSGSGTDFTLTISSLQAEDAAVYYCQPPHELPLSFGGGTKVEIK, the assay gave 150 nM (6 of 6 replicates; controls 1 of 18). With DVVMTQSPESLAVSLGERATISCKHSQSVDYESRNKAQVAWYQQKAGQPPKLLIYDASTRMSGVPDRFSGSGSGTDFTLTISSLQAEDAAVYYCQQYHRLPLSFGGGTKVEIK the result was 4.3 nM (6 of 6 replicates; controls 0 of 18). The variant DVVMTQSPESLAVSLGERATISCKLSQSELYESRAKNSVAWYQQKAGQPPKLLIYNASQRESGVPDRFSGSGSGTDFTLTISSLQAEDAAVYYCQQYHRLPLSFGGGTKVEIK gave 2.2 nM (6 of 6 replicates; controls 1 of 18). The variant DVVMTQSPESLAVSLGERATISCKSSQSVLMESRNNNSVAWYQQKAGQPPKLLIYWASTRESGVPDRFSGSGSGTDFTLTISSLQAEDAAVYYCQQYHILPLSFGGGTKVEIK gave 310 nM (2 of 6 replicates; controls 1 of 18). The variant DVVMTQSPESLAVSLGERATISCKLKQSVLYESRNKNSVAWYQQKAGQPPKLLIYNASTRCSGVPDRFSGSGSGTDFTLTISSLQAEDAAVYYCQQYHRLPLSFGGGTKVEIK showed 550 pM (6 of 6 replicates; controls 1 of 18). For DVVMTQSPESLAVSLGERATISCKSSQSVSYESDNMNSVAWYQQKAGQPPKLLIYWASTRESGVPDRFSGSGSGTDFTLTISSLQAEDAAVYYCQQYHRLPLSFGGGTKVEIK, the assay gave 17 nM (6 of 6 replicates; controls 3 of 18). The variant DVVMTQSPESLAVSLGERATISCKSSQSVLYESRNKNSVAWYQQKAGQPPKLLIYQASTREVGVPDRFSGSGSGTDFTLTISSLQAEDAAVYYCQQLHRLPLSFGGGTKVEIK showed 7.9 nM (3 of 6 replicates; controls 0 of 18). The variant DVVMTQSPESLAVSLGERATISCKSSQSVLYEGRNKNSVAWYQQKAGQPPKLLIYWASTRHSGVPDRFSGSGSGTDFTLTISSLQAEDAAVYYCQQYHRLPLSFGGGTKVEIK showed 5.8 µM (4 of 6 replicates; controls 0 of 18). With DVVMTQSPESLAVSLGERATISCKSSQSCWYEWRNKNSIAWYQQKAGQPPKLLIYWASTRFSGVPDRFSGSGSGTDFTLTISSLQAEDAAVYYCQQYFRLPLSFGGGTKVEIK the result was 32 nM (5 of 6 replicates; controls 0 of 18).

The variant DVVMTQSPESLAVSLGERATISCWSSQSYLYESRCKNSVAWYQQKAGQPPKLLIYGAQTRESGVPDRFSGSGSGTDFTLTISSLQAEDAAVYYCQQYHRLTLSFGGGTKVEIK gave no signal (0 of 6 replicates; controls 0 of 18). The variant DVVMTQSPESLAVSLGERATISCKSSSSVLYESRNKNSVAWYQQKAGQPPKLLIYWASTREDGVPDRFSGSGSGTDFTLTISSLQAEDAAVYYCQQYHRLPLSFGGGTKVEIK gave 34 nM (4 of 6 replicates; controls 0 of 18). For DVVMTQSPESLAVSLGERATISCKSSQSVLYERRNKNSVAWYQQKAGQPPKLLIYEASTRESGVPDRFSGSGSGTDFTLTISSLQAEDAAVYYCQQYHRLPLSFGGGTKVEIK, the assay gave 76 nM (6 of 6 replicates; controls 3 of 18). The variant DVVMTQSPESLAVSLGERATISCKYSQEVPEESRNKNSVAWYQQKAGQPPKLLIYNASTREEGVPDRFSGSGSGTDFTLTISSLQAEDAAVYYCQQYHRLPLSFGGGTKVEIK gave 910 pM (6 of 6 replicates; controls 0 of 18). The variant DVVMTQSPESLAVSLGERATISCKVSQSELYESRNKNSVAWYQQKAGQPPKLLIYNASLRESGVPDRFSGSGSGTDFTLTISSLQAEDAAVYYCQQYHRLPLSFGGGTKVEIK gave 3.1 nM (6 of 6 replicates; controls 0 of 18). With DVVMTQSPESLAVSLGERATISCKMSQSVLYESRNKNSVAWYQQKAGQPPKLLIYWASTRESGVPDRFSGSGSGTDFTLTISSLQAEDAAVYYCQQYHRLPLSFGGGTKVEIK the result was 7.0 nM (6 of 6 replicates; controls 1 of 18).

Excerpt, the final 2 entries:

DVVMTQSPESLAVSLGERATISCKVSQSELYESRNKNSVAWYQQKAGQPPKLLIYNASLRESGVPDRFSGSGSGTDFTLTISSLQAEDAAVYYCQQYHRLPLSFGGGTKVEIK: 3.1 nM (6 of 6 replicates; controls 0 of 18).
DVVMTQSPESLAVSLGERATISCKMSQSVLYESRNKNSVAWYQQKAGQPPKLLIYWASTRESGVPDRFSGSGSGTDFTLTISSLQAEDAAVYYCQQYHRLPLSFGGGTKVEIK: 7.0 nM (6 of 6 replicates; controls 1 of 18).